Source: paper PMC8477557 (Journal of Hematology & Oncology, 2021)

Sequences of proteins named here, by UniProt entry; tags and fusion partners are left off. Residues count along the entry.
UniProt P26951, 19-305: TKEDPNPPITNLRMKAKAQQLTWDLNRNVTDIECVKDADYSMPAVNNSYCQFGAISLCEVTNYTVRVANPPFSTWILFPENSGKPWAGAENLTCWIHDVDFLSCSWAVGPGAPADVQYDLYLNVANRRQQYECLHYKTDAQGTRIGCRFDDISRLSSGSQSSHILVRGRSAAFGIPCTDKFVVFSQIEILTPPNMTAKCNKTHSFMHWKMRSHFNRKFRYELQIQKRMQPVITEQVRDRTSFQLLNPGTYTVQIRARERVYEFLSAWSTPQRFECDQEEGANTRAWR

Target: CD123 extracellular domain (human (cDNA of L-428 cells), UniProt P26951)
Assay: cell-based or functional assay

B1: 2 × SIRPα-αCD123 fusion antibody (bispecific antibody, V domains shown)
VH: EVQLVQSGAEVKKPGESLKISCKGSGYSFTDYYMKWARQMPGKGLEWMGDIIPSNGATFYNQKFKGQVTISADKSISTTYLQWSSLKASDTAMYYCARSHLLRASWFAYWGQGTMVTVSS
VL: DIVMTQSPDSLAVSLGERATINCESSQSLLNSGNQKNYLTWYQQKPGQPPKPLIYWASTRESGVPDRFSGSGSGTDFTLTISSLQAEDVAVYYCQNDYSYPYTFGQGTKLEIK
EC50 of NK cell-mediated lysis (ADCC) of MOLM-13 cells, calcein AM release, 4 h, E:T 5:1: 19.1 pM
